Test results as given in US6281248A, “Composition for treating asthma” (priority 2000, dated 2001).

System: norepinephrine neuronal reuptake
Experiment: In vitro neuronal norepinephrine reuptake
Details: animals

**Q.** Which “effects on norepinephrine neuronal reuptake” value does the source give for `CN[C@H]1CC[C@@H](c2ccc(Cl)c(Cl)c2)c2ccccc21.Cl` [sertraline, (1S-cis)-4-(3,4-dichlorophenyl)-1,2,3,4-tetrahydro-N-methyl-1-naphthalenamine hydrochloride] here?
**A.** Its value is “only very weak effects”.
